RAD54 branch: inhibitors of human RAD54 branch migration, primary screen, biochemical, fluorescence, single point. inhibition, % at 10.4 µM. actives 0.14% (n = 360,000). AID 602329, 2012. DNA repair and recombination protein RAD54-like (Homo sapiens), Q92698. RAD54 Holliday junction branch migration, FAM/BHQ fluorescence;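 active means mean normalized replicate activity at least 40 and at least half of replicates scoring 40 or more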;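 further: 0% = median of neutral control wells and 100% = median of positive control wells; inhibitors cause a drop in the FAM fluorescence signal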
Casp6 inh: human caspase-6 inhibitors, primary screen, biochemical, VEID-R110 fluorescence, single point, set 2; P55212; purified caspase-6, Z-VEID-R110 cleavage fluorescence; inhibition, % at 12.5 µM; actives 0.53% (n = 350,000);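 active means mean inhibition across replicates at least about 35%, with every replicate also reaching that limit, limit read from the data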;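 further: 0% = median of neutral control wells and 100% = no fluorescence left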
PglD inh: C. jejuni PglD acetyltransferase inhibitors, primary screen, biochemical, DTNB colorimetric, single point; UDP-N-acetylbacillosamine N-acetyltransferase PglD (Campylobacter jejuni); purified PglD enzyme, DTNB colorimetric CoA detection; inhibition, % at 12.5 µM; actives 0.098% (n = 360,000); in the data active means inhibition above about 16%, passing the limit was not always enough
UUG fidelity: modulators of yeast start codon fidelity, primary screen, whole organism, S. cerevisiae, single point, plate reader; S. cerevisiae UUG-firefly luciferase reporter, luminescence/redox ratio; activity score, % at 18.7 µM; actives 0.13% (n = 350,000);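 active means replicate mean at a twofold rise or more, about +100% in these data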;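 further: firefly luciferase made from a UUG start codon reports start codon fidelity; reporter light over untreated wells divided by growth signal over untreated wells; some hits fall short of that in this replicate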
GSIS activator: GLuc luminescence reporter in INS-1E cells, primary screen for activators of glucose-dependent secretion of insulin; INS-1E GLuc reporter insulin secretion, 2-3 h; activation, % at 16.6 µM; actives 0.61% (n = 370,000); AID 743287, 2014;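 active means lowest replicate activation of at least 40%, so every replicate reaches that level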;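 further: 0% = median of neutral control wells and 100% = median of IBMX positive control wells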
RAD52 anneal inh: RAD52 DNA annealing inhibitors, primary screen, biochemical, FRET, single point, set 2 | DNA repair protein RAD52 homolog (Homo sapiens), P43351 | recombinant RAD52 DNA annealing, FRET fluorescence | inhibition, % at 18.7 µM | actives 0.46% (n = 360,000) | AID 651710, 2012;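 active means every replicate showing at least 50% inhibition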
* = called active by the depositor; nt = no result. Hits are enriched below; roughly 1.5% of the tested compounds scored in any of these assays.

The opening 2 records, to show the layout:
SMILES	RAD54 branch	Casp6 inh	PglD inh	UUG fidelity	GSIS activator	RAD52 anneal inh
C[C@@H]1CN([C@H](C)CO)S(=O)(=O)c2ccc(C#C[C@@H](C)O)cc2O[C@@H]1CN(C)Cc1ccccn1	0	-4	-1	17	3	-7
Cc1ccc(S(=O)(=O)c2ccc(Cl)cc2)cc1S(N)(=O)=O	-3	4	2	3	-2	-17

The listing, repeating the preview:
SMILES	RAD54 branch	Casp6 inh	PglD inh	UUG fidelity	GSIS activator	RAD52 anneal inh
C[C@@H]1CN([C@H](C)CO)S(=O)(=O)c2ccc(C#C[C@@H](C)O)cc2O[C@@H]1CN(C)Cc1ccccn1	0	-4	-1	17	3	-7
Cc1ccc(S(=O)(=O)c2ccc(Cl)cc2)cc1S(N)(=O)=O	-3	4	2	3	-2	-17
CCOc1ccc(NC(=O)COC(=O)Cn2cnnn2)cc1OCC	7	0	6	-3	44*	-5
NC(=O)C1C(=O)c2ccccc2C1(C[N+](=O)[O-])c1ccccc1 (configuration not stated)	-25	69*	9	2	nt	-13
O=C(O)CC1(c2ccccc2)C(=O)c2ccccc2C1=O	-8	nt	0	-5	nt	nt
O=C(Nc1cccnc1)c1cc2nc(C3CC3)cc(C(F)(F)F)n2n1	-7	nt	1	-15	11	nt
O=C(O)c1ccc(-n2cccc2/C=N\NC(=O)c2cc3cc(Br)ccc3o2)cc1	-2	64*	-3	-8	-13	-11
COc1cccc(/C=N/Nc2ncnc3c2[nH]c2ccc(C)cc23)c1OC	nt	0	nt	nt	-5	-16
COc1ccc(/C=N/Nc2ncnc3c2[nH]c2ccccc23)c(OC)c1OC	-13	nt	7	-10	68*	nt
O=C(COC(=O)/C=C/c1ccco1)Nc1ncc(Cl)cc1Cl	-13	44*	-7	11	-11	-43
Cc1nc(NC(=O)COC(=O)/C=C/c2ccco2)c(Cl)cc1Cl	-13	50*	0	-10	-3	-81
COC(=O)c1ccccc1Oc1ccc(NC(=O)CCCl)cc1	3	9	-3	-2	-1	-11
O=C(CNC(=S)NC(=O)c1ccco1)c1ccccc1	5	nt	2	-26	nt	nt
CNc1nc(OCC#N)nc(N2CCCCC2)n1	nt	-4	nt	nt	44*	-17
CNc1nc(OCC(F)(F)F)nc(N2CCOCC2)n1	-4	nt	-9	-10	nt	nt
CCC(=O)C(C#N)(c1ccc(OC)c(OC)c1)C(C)C (configuration not stated)	-7	nt	1	-30	82*	nt
CCOC(=O)/C(C#N)=C/c1ccc(OC)c(OC)c1	-7	nt	2	-12	nt	nt
COc1cc(/C=C2/CC(C)OC2=O)c([N+](=O)[O-])cc1OC (configuration not stated)	-2	4	-6	-16	-2	2
CN(C)c1nc2sc3c(c2c(=O)n1C)CC(C)(C)OC3	4	nt	2	-10	27	nt
CCCCn1c(=O)n(C)c(=O)c2c3c(sc21)COC(C)(C)C3	-2	nt	5	-9	45*	nt
Cc1ccc(S(=O)(=O)CCC(=O)Nc2cccc(C)c2)cc1	11	nt	2	-9	-2	nt
CCc1cccc(NC(=O)CCS(=O)(=O)c2ccc(Br)cc2)c1	4	72*	7	6	-9	-12
NS(=O)(=O)c1ccc(CCNC(=O)CCS(=O)(=O)c2ccc(Br)cc2)cc1	-5	79*	2	2	6	-8
O=C(CCS(=O)(=O)c1ccc(Br)cc1)NCCc1ccccc1	2	-2	-7	25	15	-31
COc1ccc(CNC(=O)CCS(=O)(=O)c2ccc(Br)cc2)cc1	-1	57*	0	-13	28	-7

Compound profiles, as listed above. Values in the order: RAD54 branch, Casp6 inh, PglD inh, UUG fidelity, GSIS activator, RAD52 anneal inh
`CCCCn1c(=O)n(C)c(=O)c2c3c(sc21)COC(C)(C)C3` as listed: -2, nt, 5, -9, 45*, nt
`C[C@@H]1CN([C@H](C)CO)S(=O)(=O)c2ccc(C#C[C@@H](C)O)cc2O[C@@H]1CN(C)Cc1ccccn1` as listed: 0, -4, -1, 17, 3, -7
`COc1ccc(/C=N/Nc2ncnc3c2[nH]c2ccccc23)c(OC)c1OC` as listed: -13, nt, 7, -10, 68*, nt
`COC(=O)c1ccccc1Oc1ccc(NC(=O)CCCl)cc1` as listed: 3, 9, -3, -2, -1, -11

More results follow:
SMILES	RAD54 branch	Casp6 inh	PglD inh	UUG fidelity	GSIS activator	RAD52 anneal inh
O=C(O)c1ccc(NC(=S)NCc2ccccc2)cc1	1	4	7	-13	6	-1
Fc1ccccc1-c1nnc2ccc3ccccc3n12	3	3	3	0	53*	-6
CC1CCN(c2nc(CN3CCCCC3)nc3scc(-c4ccccc4)c23)CC1	5	nt	2	3	5	nt
COc1cccc(Sc2ccccc2CN(C)C)c1	0	nt	3	18	10	nt
CN(C)Cc1ccccc1Sc1ccc2c(c1)CCCC2	-3	2	0	-13	54*	12
Cc1cccc(NC(=O)CSc2nc3ccccc3c3nc(CCc4c(C)n[nH]c4C)nn23)c1	nt	nt	13	-19	nt	nt
Cc1cccc(CS(=O)(=O)c2ncc(Cl)c(C(=O)Nc3c(C)cccc3C)n2)c1	-7	11	-6	-22	80*	-12
CC(=O)NC(Cc1c[nH]c2ccccc12)C(=O)NCc1ccco1 (configuration not stated)	-2	-2	-2	-17	20	-6
O=C(Cc1ccc(F)cc1)NC(Cc1c[nH]c2ccccc12)C(=O)O (configuration not stated)	5	-1	8	-5	19	-5
CC(Cc1c[nH]c2ccccc12)C(=O)NCc1ccco1 (configuration not stated)	5	42*	-5	-1	-3	-3
O=C(Cc1c[nH]c2ccccc12)N[C@@H](Cc1c[nH]c2ccccc12)C(=O)O	-1	2	-4	6	53*	-19
COc1cc(NC(=O)CNc2cccc(S(=O)(=O)N3CCCC3)c2)cc(OC)c1	4	-1	4	-16	1	1
COc1ccccc1C(=O)NCCC(=O)Nc1ncccc1C	4	-132	-3	-12	5	3
COc1cccc(/C=N/NC(=S)NCCc2ccccc2)c1	2	35*	2	-27	-7	-8
COc1cc(/C=N/NC(=S)NCc2ccccc2)ccc1OCC#N	nt	nt	nt	nt	117*	nt
CCc1ccc(/C=N/NC(=S)NCCc2ccccc2)cc1	-4	nt	5	-13	41*	nt
COc1ccc(/C=N/NC(=S)NCCc2ccccc2)cc1	7	-2	-2	-15	6	-10
CCn1c(SCC(=O)N2CCc3ccccc32)nnc1-c1ccncc1	-6	nt	2	-14	nt	nt
Cc1cc(Br)cn2c(Cc3cccc(F)c3)c(-c3ccco3)nc12	nt	18	nt	nt	66*	-31
C=CCN(C(C)=O)C1CC(=O)N(c2ccc(OCCC)cc2)C1=O (configuration not stated)	0	nt	3	-4	nt	nt
O=c1[nH]nc(-c2ccccc2)c2ccccc12	5	1	2	-7	66*	-24
c1ccc(-c2n[nH]c3ccccc23)cc1	-5	1	-1	2	-7	-6
CCCCCc1cc(=O)oc2c(C(CCN3CCCC(C)C3)c3cc(OC)c(OC)c(OC)c3)c(OC)cc(OC)c12 (configuration not stated)	2	nt	3	25	nt	nt
CCCCCc1cc(=O)oc2c(C(CCN3CCCCC3)c3cc(OC)c(OC)c(OC)c3)c(OC)cc(OC)c12 (configuration not stated)	17	-7	1	6	59*	47

Screening results (PubChem)
